The results in this text go back to patent US4405743A, “Pyrazolylpyrimidine derivatives” (Hokko Chemical Industry Co., Ltd., priority 1981, dated 1983).

Structures are written as SMILES.

The test system of this test is Sphaerotheca friliginea. In words: Effect of controlling cucumber powdery mildew, Experimental Example 4. As to conditions: in vivo. The method, then:
10 ml of each of test liquids diluted to a predetermined concentration was sprayed over seedlings of a cucumber plant (variety: Sagami Hanpaku) grown up to the first leaf stage which has been soil cultured in an unglazed pot with a diameter of 9 cm in a green house. After allowing to stand overnight, the seedlings were sprayed for inoculation with a spore suspension of Sphaerotheca friliginea. Ten days after the inoculation, the rate of a lesion area (%) was checked and a control value was evaluated from the following equation. The degree of chemical injury against a cucumber plant was determined in the same manner as in Experimental Example.

As for `Cc1cc(Oc2ccc(Cl)c(Cl)c2)nc(-n2nc(C)cc2C)n1` [Compound 24], the Control value worked out at 80%.
